System: C. elegans VP596 Pgst-4::GFP/RFP ratio, acrylamide-induced, 24 h
Assay: structure-activity of worm SKN-1 blockers – whole organism, GFP/RFP fluorescence ratio, strain VP596, SAR follow-up (AID 651996)

Question: How did the IC50 turn out when `Cc1ccc2nc(-c3ccc(NC(=S)NC4CC(C)(C)NC(C)(C)C4)cc3)sc2c1` was run?
Answer: Its IC50 is 16.8 µM.

Reference: PubChem BioAssay AID651996 (Sanford-Burnham Center for Chemical Genomics, 2013)
